Literature values, collected in patent US6100254A, “Inhibitors of protein tyrosine kinases” (Board of Regents, The University of Texas System, priority 1997, dated 2000).

Settings: clearance from the plasma; cited from earlier work

CC[C@]1(O)C[C@H]2CN(CCc3c([nH]c4ccccc34)[C@@](C(=O)OC)(c3cc4c(cc3OC)N(C=O)[C@H]3[C@@](O)(C(=O)OC)[C@H](OC(C)=O)[C@]5(CC)C=CCN6CC[C@]43[C@@H]65)C2)C1 [Vincristine]
terminal half-life: about 24 hours
